ChEMBL document CHEMBL1817631, “Synthesis and characterization of tritylthioethanamine derivatives with potent KSP inhibitory activity” (Bioorg Med Chem, 2011)

Biological target: T1, Kinesin-like protein KIF11 (Homo sapiens, UniProt P52732)
T1 sequence (P52732 whole entry): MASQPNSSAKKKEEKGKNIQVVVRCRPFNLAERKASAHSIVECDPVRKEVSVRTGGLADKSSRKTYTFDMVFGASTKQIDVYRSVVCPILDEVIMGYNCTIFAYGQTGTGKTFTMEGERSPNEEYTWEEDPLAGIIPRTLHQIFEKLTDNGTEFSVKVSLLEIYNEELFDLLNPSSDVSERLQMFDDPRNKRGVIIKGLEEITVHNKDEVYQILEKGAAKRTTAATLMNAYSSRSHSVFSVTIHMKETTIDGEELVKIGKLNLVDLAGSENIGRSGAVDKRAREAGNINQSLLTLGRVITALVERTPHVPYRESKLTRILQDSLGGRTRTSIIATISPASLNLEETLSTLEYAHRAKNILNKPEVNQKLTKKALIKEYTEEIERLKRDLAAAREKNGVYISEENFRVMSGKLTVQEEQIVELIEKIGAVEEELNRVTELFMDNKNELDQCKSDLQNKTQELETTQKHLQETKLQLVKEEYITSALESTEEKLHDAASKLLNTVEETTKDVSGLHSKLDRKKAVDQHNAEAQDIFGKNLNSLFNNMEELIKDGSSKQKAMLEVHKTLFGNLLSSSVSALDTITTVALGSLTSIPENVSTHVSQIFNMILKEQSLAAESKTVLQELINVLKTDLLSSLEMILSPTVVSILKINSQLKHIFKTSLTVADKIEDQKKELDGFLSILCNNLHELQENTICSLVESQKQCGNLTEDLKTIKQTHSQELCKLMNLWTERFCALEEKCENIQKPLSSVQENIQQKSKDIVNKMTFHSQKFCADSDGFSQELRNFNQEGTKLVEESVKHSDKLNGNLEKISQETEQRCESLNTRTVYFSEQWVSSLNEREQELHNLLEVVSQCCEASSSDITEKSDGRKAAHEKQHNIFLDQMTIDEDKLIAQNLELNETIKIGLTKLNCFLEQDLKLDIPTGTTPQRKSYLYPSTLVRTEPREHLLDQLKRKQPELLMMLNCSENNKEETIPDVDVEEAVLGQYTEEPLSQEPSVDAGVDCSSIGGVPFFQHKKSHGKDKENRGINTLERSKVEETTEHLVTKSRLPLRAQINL

COc1ccc(C(SC[C@H](N)CO)(c2ccccc2)c2ccccc2)cc1 and COc1ccc(C(SC[C@@H](N)CO)(c2ccccc2)c2ccccc2)cc1 are within 1.5-fold of each other in IC50: 127 nM for the first, 130 nM for the second.

N[C@H](CO)CSC(c1ccccc1)(c1ccccc1)c1ccccc1 was tested, and the IC50 was 310 nM.
